# Laboratory results from PubChem BioAssay (EPA / NIEHS).
# By UniProt entry, the sequences of proteins in these tests, tags left out. Where a name states a change or a piece, a line headed by the entry shows the natural chain unless it says otherwise.
# UniProt P11473: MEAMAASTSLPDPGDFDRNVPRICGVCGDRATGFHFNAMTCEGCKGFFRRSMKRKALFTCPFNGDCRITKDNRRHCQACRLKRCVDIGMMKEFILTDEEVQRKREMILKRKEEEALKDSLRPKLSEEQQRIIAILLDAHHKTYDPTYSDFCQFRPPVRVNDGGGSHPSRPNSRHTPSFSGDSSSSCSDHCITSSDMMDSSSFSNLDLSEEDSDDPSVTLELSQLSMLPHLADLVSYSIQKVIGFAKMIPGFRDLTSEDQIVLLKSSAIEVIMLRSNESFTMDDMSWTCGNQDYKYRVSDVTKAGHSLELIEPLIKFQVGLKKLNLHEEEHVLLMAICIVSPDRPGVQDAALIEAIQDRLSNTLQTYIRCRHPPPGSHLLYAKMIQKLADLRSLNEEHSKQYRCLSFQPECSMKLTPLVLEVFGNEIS
# UniProt P35968, whole entry, looked up: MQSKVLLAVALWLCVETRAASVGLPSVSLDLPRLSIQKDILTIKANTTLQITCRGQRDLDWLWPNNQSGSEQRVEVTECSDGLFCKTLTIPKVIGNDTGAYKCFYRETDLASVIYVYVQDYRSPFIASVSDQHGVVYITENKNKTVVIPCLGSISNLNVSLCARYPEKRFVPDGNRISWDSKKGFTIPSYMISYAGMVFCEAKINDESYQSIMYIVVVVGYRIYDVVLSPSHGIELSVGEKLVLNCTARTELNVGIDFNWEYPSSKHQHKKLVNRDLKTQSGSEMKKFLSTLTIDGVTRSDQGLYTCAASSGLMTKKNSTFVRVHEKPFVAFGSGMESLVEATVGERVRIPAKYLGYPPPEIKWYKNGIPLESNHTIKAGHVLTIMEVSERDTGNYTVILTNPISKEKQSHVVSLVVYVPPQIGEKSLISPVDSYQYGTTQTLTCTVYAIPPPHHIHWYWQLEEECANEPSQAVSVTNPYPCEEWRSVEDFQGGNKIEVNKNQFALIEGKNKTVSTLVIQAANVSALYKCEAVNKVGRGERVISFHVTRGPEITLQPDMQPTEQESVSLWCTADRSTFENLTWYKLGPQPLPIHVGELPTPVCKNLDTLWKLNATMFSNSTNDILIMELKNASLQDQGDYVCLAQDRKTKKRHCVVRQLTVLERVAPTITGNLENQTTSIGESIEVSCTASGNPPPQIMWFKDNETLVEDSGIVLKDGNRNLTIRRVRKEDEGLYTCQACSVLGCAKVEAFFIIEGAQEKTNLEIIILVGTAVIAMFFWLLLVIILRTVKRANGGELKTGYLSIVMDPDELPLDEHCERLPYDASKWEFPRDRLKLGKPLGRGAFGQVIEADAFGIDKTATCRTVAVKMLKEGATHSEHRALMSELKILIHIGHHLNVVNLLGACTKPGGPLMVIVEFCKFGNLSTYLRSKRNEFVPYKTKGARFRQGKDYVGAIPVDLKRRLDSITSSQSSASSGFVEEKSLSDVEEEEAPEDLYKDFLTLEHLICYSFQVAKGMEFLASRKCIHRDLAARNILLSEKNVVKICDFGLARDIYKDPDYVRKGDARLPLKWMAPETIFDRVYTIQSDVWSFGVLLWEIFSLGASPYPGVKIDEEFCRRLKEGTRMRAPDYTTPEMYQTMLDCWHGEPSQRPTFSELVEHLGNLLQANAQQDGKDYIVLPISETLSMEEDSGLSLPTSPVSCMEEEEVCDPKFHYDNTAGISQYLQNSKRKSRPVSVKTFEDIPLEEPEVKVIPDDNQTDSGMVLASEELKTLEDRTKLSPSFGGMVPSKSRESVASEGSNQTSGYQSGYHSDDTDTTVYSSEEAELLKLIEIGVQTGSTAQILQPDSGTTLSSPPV
# “And” between values parts separate entries of the source, which are not always exact repeats. Equal entries are not always repeated. The entries are a selection whose mix differs from that of the whole data set. Results filed as inconclusive are left out. A structure can be active in one record and inactive in another. The source made the active and inactive calls. The calls were made as follows, unless noted: active = hit-call score of the fitted dose curve at least 0.9, where 1 is the maximum; inactive = score below 0.9.
# Tests used:
# [1] = read-out: Human Leukocyte Antigen - DR isotype (HLADR), HLA-DRA (gene 3122); assay: BSK_3C_HLADR: BioMAP Diversity Plus: 3C Assay for Human Leukocyte Antigen - DR isotype (HLADR) Biomarker Activity (AID 2283019); conditions: actives raise or lower the signal; primary human endothelial cells (HUVEC);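 as to outcome: ELISA of cell-surface HLA-DR on HUVEC 24 h after dosing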
# In short: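 ELISA readout of surface HLA-DR on human umbilical vein endothelium, taken 24 h after chemical treatment. Gain- and loss-of-signal were both fitted relative to DMSO.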
# [2] = read-out: Interleukin-8 (IL8), CXCL8 (gene 3576); assay: BSK_3C_IL8: BioMAP Diversity Plus: 3C Assay for Interleukin-8 (IL8) Biomarker Activity (AID 2283020); conditions: actives raise or lower the signal; primary human endothelial cells (HUVEC)
# In short: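 Endothelial primary cells of human umbilical vein origin are dosed with chemical; after 24 h the IL-8 biomarker is measured by ELISA, and concentration–response is fitted in both directions versus DMSO.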
# [3] = read-out: Monokine induced gamma interferon (MIG), CXCL9 (gene 4283); assay: BSK_3C_MIG: BioMAP Diversity Plus: 3C Assay for Monokine induced gamma interferon (MIG) Biomarker Activity (AID 2283021); conditions: actives raise or lower the signal; primary human endothelial cells (HUVEC);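 as to AC50: MIG protein level measured by immunoassay in the treated endothelial cultures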
# In short: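 Endothelial primary cells (human umbilical vein) are dosed with test chemical in the 3C system. MIG levels are measured by ELISA at 24 h and fitted in both directions relative to DMSO.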
# [4] = target: human Vitamin D Receptor (VDR), VDR (gene 7421) (UniProt P11473); assay: ATG_VDR_TRANS: Attagene TRANS-FACTORIAL HepG2 Assay for human Vitamin D Receptor (VDR) (AID 2283022; active = hit-call score of the fitted dose curve at least 0.9, where 1 is the maximum)
# In short: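 Steps: transfect HepG2 with GAL4-UAS-driven reporter constructs; dose compounds 24 h; isolate RNA, reverse-transcribe, PCR-amplify with 6-FAM-labelled primer extension and HpaI digestion; quantify fragments by capillary electrophoresis relative to DMSO.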
# [5] = BSK_3C_SRB: Viability Assessment in the BioMAP Diversity Plus: 3C Assay (AID 2283023); conditions: primary human endothelial cells (HUVEC);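 also: fitted both ways against DMSO so a hit may be signal rise or drop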
# In short: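 Absorbance at 560 nm of sulforhodamine B-stained (0.1%) total protein served as a cytotoxicity readout in human umbilical vein endothelial cells, 24 h after chemical treatment. Signal was fitted bidirectionally relative to DMSO.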
# [6] = read-out: Matrix Metallopeptidase 1 (MMP1), MMP1 (gene 4312); assay: BSK_BE3C_MMP1: BioMAP Diversity Plus: BE3C Assay for Matrix Metallopeptidase 1 (MMP1) Biomarker Activity (AID 2283024); conditions: actives raise or lower the signal; primary human bronchial epithelial cells
# In short: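 MMP1 signal, measured by ELISA after a 24 h chemical exposure of human primary bronchial epithelial cells, is analysed with bidirectional fitting using DMSO as negative control.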
# [7] = BSK_3C_Vis: BioMAP Diversity Plus: 3C Assay for Morphology Visualization (AID 2283025); conditions: primary human endothelial cells (HUVEC);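 also: fitted both ways so gain or loss versus DMSO counts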
# In short: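 Morphology read by light microscopy serves as a background control for the multiplexed 3C assay in human umbilical vein endothelial cells, taken 24 h after dosing, with DMSO as the negative control and bidirectional curve fitting.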
# [8] = read-out: Pselectin, SELP (gene 6403); assay: BSK_4H_Pselectin: BioMAP Diversity Plus: 4H Assay for Pselectin Biomarker Activity (AID 2283026); conditions: actives raise or lower the signal; primary human endothelial cells (HUVEC)
# In short: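 Endothelial primary cells (human umbilical vein) are dosed, incubated 24 h, and assayed for surface P-selectin by ELISA; responses in either direction are fitted relative to the DMSO negative control.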
# [9] = BSK_4H_SRB: Viability Assessment in the BioMAP Diversity Plus: 4H Assay (AID 2283027); conditions: primary human endothelial cells (HUVEC);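 also: cells exposed to compound for 24 h before staining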;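 as to AC50: curves fitted both ways versus DMSO so AC50 may be loss or gain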
# In short: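 Cytotoxicity readout: sulforhodamine B (0.1%) staining of total protein after 10% TCA fixation, measured at 560 nm in human umbilical vein endothelium at 24 h. DMSO set the baseline; fitting was bidirectional.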
# [10] = BSK_BE3C_SRB: Viability Assessment in the BioMAP Diversity Plus: BE3C Assay (AID 2283028); conditions: primary human bronchial epithelial cells;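 as to AC50: fitted both ways so AC50 may mark signal gain or loss versus DMSO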
# In short: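 Cells (human bronchial epithelial, primary) are treated with chemicals, and after 24 h the parallel cultures are fixed in 10% TCA. These are then stained with 0.1% SRB and read at 560 nm. Gain or loss of signal is fitted relative to DMSO.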
# [11] = read-out: Thrombomodulin, THBD (gene 7056); assay: BSK_3C_Thrombomodulin: BioMAP Diversity Plus: 3C Assay for Thrombomodulin Biomarker Activity (AID 2283029); conditions: actives raise or lower the signal; primary human endothelial cells (HUVEC)
# In short: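 Endothelial cells from umbilical vein are dosed with test chemical and incubated 24 h. Thrombomodulin is then quantified by ELISA, with DMSO serving as negative control and activity baseline.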
# [12] = read-out: Urokinase-type plasminogen activator receptor (uPAR), PLAUR (gene 5329); assay: BSK_4H_uPAR: BioMAP Diversity Plus: 4H Assay for Urokinase-type plasminogen activator receptor (uPAR) Biomarker Activity (AID 2283030); conditions: actives raise or lower the signal; primary human endothelial cells (HUVEC)
# In short: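 Cell-surface uPAR ELISA signal, measured 24 h after dosing human umbilical vein endothelial cells, was analyzed with bidirectional fitting relative to DMSO. Parallel SRB staining of total protein tracked overt cytotoxicity.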
# [13] = read-out: Vascular endothelial growth factor receptor 2 (Homo sapiens) (UniProt P35968); assay: BSK_4H_VEGFRII: BioMAP Diversity Plus: 4H Assay for Vascular endothelial growth factor receptor 2 (VEGFR2) Biomarker Activity (AID 2283031); conditions: actives raise or lower the signal; primary human endothelial cells (HUVEC);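 as to AC50: cell-surface VEGFR2 protein level quantified by ELISA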
# In short: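 ELISA read-out of VEGFRII in primary human umbilical vein endothelium, taken 24 h after chemical treatment. Responses are expressed relative to DMSO, with bidirectional fitting.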
# [14] = read-out: Human Leukocyte Antigen - DR isotype (HLADR), HLA-DRA (gene 3122); assay: BSK_BE3C_HLADR: BioMAP Diversity Plus: BE3C Assay for Human Leukocyte Antigen - DR isotype (HLADR) Biomarker Activity (AID 2283032); conditions: actives raise or lower the signal; primary human bronchial epithelial cells
# In short: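 Chemicals are dosed onto BE3C bronchial epithelial cultures of human origin and left 24 h. HLA-DR is then measured by ELISA, and the endpoint is fitted in both directions using DMSO as the activity baseline.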
# [15] = read-out: Vascular cell adhesion molecule 1 (VCAM1), VCAM1 (gene 7412); assay: BSK_4H_VCAM1: BioMAP Diversity Plus: 4H Assay for Vascular cell adhesion molecule 1 (VCAM1) Biomarker Activity (AID 2283033); conditions: actives raise or lower the signal; primary human endothelial cells (HUVEC);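 as to outcome: cell-surface VCAM-1 protein measured by ELISA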
# In short: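 Chemicals are added to primary human umbilical vein endothelial cells. After 24 h, VCAM-1 levels are measured by ELISA. Values come from bidirectional fitting referenced to DMSO.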
# [16] = read-out: Interferon-gamma inducible Protein 10 (IP10), CXCL10 (gene 3627); assay: BSK_BE3C_IP10: BioMAP Diversity Plus: BE3C Assay for Interferon-gamma inducible Protein 10 (IP10) Biomarker Activity (AID 2283034); conditions: actives raise or lower the signal; primary human bronchial epithelial cells
# In short: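 IP-10 quantified by ELISA serves as the endpoint. Cells: primary human bronchial epithelium, read 24 h after compound addition. Activity is derived by bidirectional fitting with DMSO as negative control.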
# [17] = read-out: Monokine induced gamma interferon (MIG), CXCL9 (gene 4283); assay: BSK_BE3C_MIG: BioMAP Diversity Plus: BE3C Assay for Monokine induced gamma interferon (MIG) Biomarker Activity (AID 2283035); conditions: actives raise or lower the signal; primary human bronchial epithelial cells;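 also: MIG protein measured by ELISA in BE3C cultures after 24 h of dosing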
# In short: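 hu bronchial epithelial 1° cells, 24 h cpd; MIG by ELISA; bidirectional fit, DMSO = baseline.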
# [18] = read-out: Transforming growth factor beta 1 (TGFb1), TGFB1 (gene 7040); assay: BSK_BE3C_TGFb1: BioMAP Diversity Plus: BE3C Assay for Transforming growth factor beta 1 (TGFb1) Biomarker Activity (AID 2283036;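 as to outcome: TGF-b1 protein level measured by ELISA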); conditions: actives raise or lower the signal; primary human bronchial epithelial cells
# In short: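 Bronchial epithelial primary cells are treated with test chemical, then TGF-b1 is quantified by ELISA after 24 hours. Values derive from bidirectional fitting against DMSO, with cytotoxicity checked by SRB staining in parallel cultures.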
# [19] = read-out: Plasminogen activator inhibitor-1 (PAI1), SERPINE1 (gene 5054); assay: BSK_BE3C_PAI1: BioMAP Diversity Plus: BE3C Assay for Plasminogen activator inhibitor-1 (PAI1) Biomarker Activity (AID 2283037); conditions: actives raise or lower the signal; primary human bronchial epithelial cells
# In short: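 Values derive from bidirectional fitting against DMSO baseline of PAI-1 levels, measured by ELISA in human bronchial epithelial cells 24 h after compound addition.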
# [20] = read-out: urokinase plasminogen activator (uPA), PLAU (gene 5328); assay: BSK_BE3C_uPA: BioMAP Diversity Plus: BE3C Assay for urokinase plasminogen activator (uPA) Biomarker Activity (AID 2283038); conditions: actives raise or lower the signal; primary human bronchial epithelial cells;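 as to outcome: uPA protein level quantified by ELISA in cell cultures; uPA read one day after compound addition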
# In short: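 Bronchial epithelial cells (human, primary); chemical 24 h; uPA by ELISA; bidirectional fit vs DMSO. SRB (0.1%, after 10% TCA fixation, 560 nm) in parallel cultures for cytotoxicity.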
structure (smiles),measurement,setting,value
CN(C(=O)Cc1cccc2occc12)[C@H]1CC[C@@]2(CCCO2)C[C@@H]1N1CCCC1,outcome,[1],inactive
same,outcome,[2],inactive
same,outcome,[3],inactive
same,outcome,[4],inactive
same,outcome,[5],inactive
same,outcome,[6],inactive
same,outcome,[7],inactive
same,outcome,[8],inactive
same,outcome,[9],inactive
same,outcome,[10],inactive
same,outcome,[11],inactive
same,outcome,[12],inactive
same,outcome,[13],inactive
same,outcome,[14],inactive
same,outcome,[15],inactive
same,outcome,[16],inactive
same,outcome,[17],inactive
same,outcome,[18],inactive
same,outcome,[19],inactive
same,outcome,[20],inactive
O=[p+]1oc2ccccc2c2ccccc21 (configuration not stated),outcome,[4],inactive
CCCCC(CC)CO[P+](=O)OCC(CC)CCCC (configuration not stated),outcome,[4],inactive
O=C1C2CC=CCC2C(=O)N1SC(Cl)(Cl)C(Cl)Cl (configuration not stated),AC50,[1],active: 6.17 µM
same,AC50,[3],active: 29 µM
same,outcome,[4],inactive
same,AC50,[6],active: 5.02 µM
same,AC50,[7],active: 13 µM
same,AC50,[8],active: 14 µM
same,outcome,[10],inactive
same,outcome,[11],inactive
same,AC50,[12],active: 16.9 µM
same,AC50,[13],active: 14.4 µM
same,outcome,[17],inactive
same,AC50,[19],active: 5.04 µM
same,AC50,[20],active: 4.97 µM
O=[N+]([O-])c1ccc([N+](=O)[O-])cc1,AC50,[1],active: 7.21 µM
same,outcome,[2],inactive
same,outcome,[3],inactive
same,outcome,[4],inactive
same,outcome,[5],inactive
same,outcome,[6],inactive
same,outcome,[7],inactive
same,outcome,[8],inactive
same,outcome,[9],inactive
same,outcome,[10],inactive
same,outcome,[11],inactive
same,outcome,[12],inactive
same,outcome,[13],inactive
same,outcome,[14],inactive
same,outcome,[15],inactive
same,outcome,[16],inactive
same,outcome,[17],inactive
same,outcome,[18],inactive
same,outcome,[19],inactive
same,outcome,[20],inactive
CCCCO[P+](=O)OCCCC,outcome,[4],inactive
O=C(Cl)Oc1ccccc1,outcome,[1],inactive
same,outcome,[2],inactive
same,outcome,[3],inactive
same,outcome,[4],inactive
same,outcome,[5],inactive
same,AC50,[6],active: 0.0197 µM
same,outcome,[7],inactive
same,outcome,[8],inactive
same,outcome,[9],inactive
same,outcome,[10],inactive
same,outcome,[11],inactive
same,outcome,[12],inactive
same,outcome,[13],inactive
same,outcome,[14],inactive
same,outcome,[15],inactive
same,outcome,[16],inactive
same,outcome,[17],inactive
same,outcome,[18],inactive
same,outcome,[19],inactive
same,outcome,[20],inactive
CC(C)OP(=S)(OC(C)C)SCCNS(=O)(=O)c1ccccc1,AC50,[2],active: 29.9 µM and active: 30 µM and active: 31.1 µM
same,AC50,[3],active: 31 µM and active: 33.7 µM
same,outcome,[3],inactive
same,AC50,[6],active: 5.56 µM
same,outcome,[6],inactive
same,AC50,[7],active: 15.2 µM and active: 39.8 µM and active: 37.2 µM
same,AC50,[8],active: 31.4 µM and active: 29.4 µM and active: 29.5 µM
same,AC50,[9],active: 26.3 µM and active: 14.4 µM and active: 28.5 µM
same,AC50,[10],active: 20 µM and active: 25 µM and active: 21.6 µM
same,outcome,[11],inactive
same,AC50,[12],active: 30.5 µM and active: 36.4 µM and active: 30.7 µM
same,AC50,[15],active: 32.3 µM and active: 34.2 µM
same,outcome,[15],inactive
same,AC50,[16],active: 33.4 µM and active: 27.7 µM and active: 28.1 µM
same,outcome,[17],inactive
same,AC50,[18],active: 5.04 µM
same,outcome,[18],inactive
same,AC50,[19],active: 15.2 µM and active: 27.4 µM
same,outcome,[19],inactive
same,AC50,[20],active: 18 µM
same,outcome,[20],inactive
Cc1cc([N+](=O)[O-])cc([N+](=O)[O-])c1O,AC50,[1],active: 26.5 µM
same,AC50,[2],active: 20 µM
same,outcome,[3],inactive
same,outcome,[4],inactive
same,outcome,[5],inactive
same,outcome,[6],inactive
same,AC50,[7],active: 39 µM
same,outcome,[8],inactive
same,outcome,[9],inactive
same,outcome,[10],inactive
same,outcome,[11],inactive
same,AC50,[12],active: 20 µM
same,outcome,[13],inactive
same,AC50,[14],active: 5.19 µM
same,AC50,[15],active: 17.5 µM
same,outcome,[17],inactive
same,AC50,[18],active: 3.97 µM
same,AC50,[19],active: 9.01 µM
same,AC50,[20],active: 14.2 µM
ClP(Cl)c1ccccc1,outcome,[4],inactive
